Read-outs that look alike come from different tables or passages of the source.

Chains of the proteins cited; added tags and fusions are not shown. Residues count along the entry.
UniProt P37231, 234-505 limits assumed: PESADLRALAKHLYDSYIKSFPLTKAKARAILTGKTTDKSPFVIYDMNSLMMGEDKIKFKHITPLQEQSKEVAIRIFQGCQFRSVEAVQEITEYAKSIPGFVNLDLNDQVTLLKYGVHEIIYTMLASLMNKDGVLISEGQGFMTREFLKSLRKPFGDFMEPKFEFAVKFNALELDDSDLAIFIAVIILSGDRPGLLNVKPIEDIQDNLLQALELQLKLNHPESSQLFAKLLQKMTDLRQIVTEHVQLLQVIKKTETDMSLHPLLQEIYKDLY

The test system of assay [1] is UM-UC-9 engineered cells. Put plainly: Cell proliferation / short-term viability assay, CellTiter-Glo 144 h.
For assay [2], the target named is His6-TEV-PPARγ-(234-505) (Homo sapiens, UniProt P37231). Put plainly: TR-FRET Assay to Measure Co-R Peptide Recruitment to PPARγ.
Setting [3] is: read-out: CTGlo 144 h UMUC9.5, G150.
Setting [4] is: read-out: TR-FRET i-Ag, Co-R peptide (SMRT-ID2) recruitment, top final concentration 20 μM.

`COc1cc(-c2cc(C(=O)N3CCC(C(=O)NC4CCC(C(F)F)CC4)CC3)n[nH]2)ccn1` (single isomer, unassigned): the IC50 in assay [1] (read-out: CTGlo 144 h UMUC9.5, G150, listed as 113a) was more than 10000 nM; in assay [1] (read-out: CTGlo 144 h UMUC9.5, G150, listed as 113b) it was 2400 nM. Further, the AC50 in assay [2] (read-out: TR-FRET i-Ag, Co-R peptide (SMRT-ID2) recruitment, top final concentration 20 μM, listed as 113a) amounted to 14300 nM; in assay [2] (read-out: TR-FRET i-Ag, Co-R peptide (SMRT-ID2) recruitment, top final concentration 20 μM, listed as 113b) it was 672 nM.

Take `COc1cc(-c2cc(C(=O)N3CC[C@H](C(=O)NC(C)c4ncccc4Cl)CC34CC4)n[nH]2)c(F)cn1` (single isomer, unassigned) [Example 360-B]: the IC50 in assay [1] (setting [3]) was determined as 24.4 nM. For the same molecule, the AC50 in assay [2] (setting [4]) came to 20 nM.

Consider `COc1cc(-c2cc(C(=O)N3[C@@H]4CC[C@H]3C[C@H](C(=O)NC3CCC(OC)(C(F)(F)F)CC3)C4)n[nH]2)c(F)cn1` (single isomer, unassigned) [Example 294-A], for which the IC50 in assay [1] (setting [3]) came out at 18.9 nM. Further, the AC50 in assay [2] (setting [4]) worked out at 5.4 nM.

Turning to `Cc1cc(-c2cc(C(=O)N3[C@@H]4CC[C@H]3C[C@H](C(=O)NC3CCC(C(F)(F)F)OC3)C4)n[nH]2)c(F)cn1` (single isomer, unassigned) [Example 289-A], the IC50 in assay [1] (setting [3]) was 135 nM. In addition, the AC50 in assay [2] (setting [4]) stood at 3610 nM.

For `COc1cc(-c2cc(C(=O)N3[C@@H]4CC[C@H]3C[C@H](C(=O)NC(C)c3nc(C(F)(F)F)no3)C4)n[nH]2)c(F)cn1` (single isomer, unassigned) [Example 290-A], the IC50 in assay [1] (setting [3]) was 506 nM. In addition, in assay [2] (setting [4]), the AC50 worked out at 132 nM.

`COc1cc(-c2cc(C(=O)N3CC[C@H](C(=O)NC(C)c4ncccc4Cl)CC34CC4)n[nH]2)c(F)cn1` (single isomer, unassigned) [Example 360-A]: the IC50 in assay [1] (setting [3]) is 22.6 nM. Moreover, the AC50 in assay [2] (setting [4]) was found to be 9.2 nM.

For the molecule `COc1cc(-c2cc(C(=O)N3CC[C@H](C(=O)NC4CN(CC(C)(C)F)CC4(F)F)CC34CC4)n[nH]2)c(F)cn1` (single isomer, unassigned) [Example 379-B], the IC50 in assay [1] (setting [3]) stood at 7.2 nM. Besides, in assay [2] (setting [4]), the AC50 came to 7.7 nM.

As for `CCC1CC(C(=O)N[C@H]2CC[C@@](O)(C(F)(F)F)CC2)CCN1C(=O)c1cc(-c2cc(OC)ncc2F)[nH]n1` (single isomer, unassigned) [Example 403-D], the IC50 in assay [1] (setting [3]) was found to be 66.7 nM. Moreover, in assay [2] (setting [4]), the AC50 came out at 27.3 nM.

`Cc1cc(-c2cc(C(=O)N3[C@@H]4CC[C@H]3C[C@H](C(=O)NC3CCC(C(F)(F)F)N(C)C3)C4)n[nH]2)c(F)cn1` (single isomer, unassigned) [Example 311-D]: the IC50 in assay [1] (setting [3]) was determined as 242 nM. The AC50 in assay [2] (setting [4]) is 32.6 nM.

Turning to `COc1cc(-c2cc(C(=O)N3CC[C@H](C(=O)NCc4ncc(N5CCNC6CC65)cn4)CC34CC4)n[nH]2)c(F)cn1` (single isomer, unassigned) [Example 469-A], the IC50 in assay [1] (setting [3]) was 7770 nM. Also, the AC50 in assay [2] (setting [4]) is 92.6 nM.

With `Cc1cc(-c2cc(C(=O)N3CCC(C(=O)NC4CCC5(CC4)OCCC5(F)F)CC34CC4)n[nH]2)c(F)cn1` (single isomer, unassigned) [Example 405-C], the IC50 in assay [1] (setting [3]) was determined as 1.6 nM. Further, in assay [2] (setting [4]), the AC50 stood at 2.8 nM.

Take `Cc1cc(-c2cc(C(=O)N3CCC(C(=O)NC4CCC(O)(C(F)(F)F)CC4)CC3)n[nH]2)c(F)cn1` (single isomer, unassigned) [Example 263-B]: the IC50 in assay [1] (setting [3]) was determined as 6960 nM. Besides, the AC50 in assay [2] (setting [4]) stood at 4240 nM.

Consider `COc1cc(-c2cc(C(=O)N3CCC(C(=O)N[C@H]4CC[C@@](O)(C(F)(F)F)CC4)CC3C)n[nH]2)c(F)cn1` (single isomer, unassigned) [Example 401], for which the IC50 in assay [1] (setting [3]) stood at 41.7 nM. For the same molecule, in assay [2] (setting [4]), the AC50 stood at 21.3 nM.

As for `CCC1CC(C(=O)N[C@H]2CC[C@@](O)(C(F)(F)F)CC2)CCN1C(=O)c1cc(-c2cc(OC)ncc2F)[nH]n1` (single isomer, unassigned) [Example 403-C], the IC50 in assay [1] (setting [3]) was determined as 1240 nM. Also, in assay [2] (setting [4]), the AC50 was 245 nM.

`COc1cc(-c2cc(C(=O)N3CC[C@H](C(=O)NC4CN(CC5(O)CC5)CC4(F)F)CC34CC4)n[nH]2)c(F)cn1` (single isomer, unassigned) [Example 470-A]: in assay [1] (setting [3]), the IC50 turned out to be 813 nM. Also, in assay [2] (setting [4]), the AC50 is 87.4 nM.

For `COc1cc(-c2cc(C(=O)N3CC[C@H](C(=O)NC4CCC5(CCO5)CC4)CC34CC4)n[nH]2)c(F)cn1` (single isomer, unassigned) [Example 325-B], in assay [1] (setting [3]), the IC50 worked out at 113 nM. In addition, the AC50 in assay [2] (setting [4]) was determined as 150 nM.

On to `COc1cc(-c2cc(C(=O)N3CCC(C(=O)NC4CCC(C)(O)CC4)CC3)n[nH]2)c(Cl)cn1` (single isomer, unassigned), for which, in assay [1] (setting [3]), the IC50 was more than 10000 nM. In assay [2] (setting [4]), the AC50 stood at 11100 nM.

Consider `COc1cc(-c2cc(C(=O)N3CC[C@H](C(=O)NC4CCCn5ccnc54)CC34CC4)n[nH]2)c(F)cn1` (single isomer, unassigned) [Example 479-A], for which the IC50 in assay [1] (setting [3]) worked out at 3160 nM. In assay [2] (setting [4]), the AC50 came to 885 nM.

With `COc1cc(-c2cc(C(=O)N3CC[C@H](C(=O)NC4CCC5(CC4)OCC5(F)F)CC34CC4)n[nH]2)c(F)cn1` (single isomer, unassigned) [Example 374-B], the IC50 in assay [1] (setting [3]) came to 61 nM. In addition, the AC50 in assay [2] (setting [4]) is 50 nM.

As for `Cc1cc(-c2cc(C(=O)N3CCC(C(=O)NCc4ncccc4C4CC4)CC34CC4)[nH]n2)c(F)cn1` (single isomer, unassigned) [Example 506-B], in assay [1] (setting [3]), the IC50 came to 8.3 nM. Also, in assay [2] (setting [4]), the AC50 was 3.6 nM.

For the molecule `COc1cc(-c2cc(C(=O)N3CC[C@H](C(=O)NC4COCC4N4CCOCC4)CC34CC4)n[nH]2)c(F)cn1` (single isomer, unassigned) [Example 414-A], the IC50 in assay [1] (setting [3]) is 115 nM. Besides, the AC50 in assay [2] (setting [4]) worked out at 44.1 nM.

As for `COCCOC1(C(F)(F)F)CCC(NC(=O)[C@@H]2C[C@H]3CC[C@@H](C2)N3C(=O)c2cc(-c3cc(OC)ncc3F)[nH]n2)CC1` (single isomer, unassigned) [Example 304-A], the IC50 in assay [1] (setting [3]) was found to be 62.9 nM. The AC50 in assay [2] (setting [4]) came out at 8.3 nM.

For the molecule `COc1cc(-c2cc(C(=O)N3CC[C@H](C(=O)NC4CCC(C(F)(F)F)N(C)C4)CC34CC4)n[nH]2)c(F)cn1` (single isomer, unassigned) [Example 321-A], the IC50 in assay [1] (setting [3]) was 1.7 nM. The AC50 in assay [2] (setting [4]) was 2.7 nM.

In the case of `COc1cc(-c2cc(C(=O)N3CC[C@H](C(=O)NC4CCN(C5COC5)C4)CC34CC4)n[nH]2)c(F)cn1` (single isomer, unassigned) [Example 396-B], the IC50 in assay [1] (setting [3]) was 213 nM. In addition, in assay [2] (setting [4]), the AC50 was found to be 90.5 nM.

`COc1cc(-c2cc(C(=O)N3CCC(C(=O)NC4CCC(C)CC4)CC3)n[nH]2)ncn1` (single isomer, unassigned): in assay [1] (setting [3]), the IC50 was 640 nM. For the same molecule, in assay [2] (read-out: TR-FRET i-Ag, Co-R peptide (SMRT-ID2) recruitment, top final concentration 20 μM, listed as 111b), the AC50 was 519 nM.

As for `COC1(C(F)(F)F)CCC(NC(=O)[C@@H]2C[C@H]3CC[C@@H](C2)N3C(=O)c2cc(-c3cc(C)ncc3F)[nH]n2)CC1` (single isomer, unassigned) [Example 292-B], the IC50 in assay [1] (setting [3]) stood at 909 nM. Moreover, in assay [2] (setting [4]), the AC50 is 249 nM.

Consider `COCCC(F)(F)C1(O)CCC(NC(=O)[C@H]2CCN(C(=O)c3cc(-c4cc(OC)ncc4F)[nH]n3)C3(CC3)C2)CC1` (single isomer, unassigned) [Example 398-B], for which, in assay [1] (setting [3]), the IC50 was determined as 1530 nM. Also, the AC50 in assay [2] (setting [4]) was found to be 1460 nM.

On to `COc1cc(-c2cc(C(=O)N3[C@@H]4CC[C@H]3C[C@H](C(=O)NC3CCC(OC)(C(F)F)CC3)C4)n[nH]2)c(F)cn1` (single isomer, unassigned) [Example 302-A], for which, in assay [1] (setting [3]), the IC50 came out at 28.4 nM. Also, the AC50 in assay [2] (setting [4]) was found to be 4.9 nM.

(Values after patent publication US12606541B2, “PPARg modulators and methods of use” (Eisai R&D Management Co., Ltd., priority 2020, dated 2026).)
